## Cyclic peptide permeability, from CycPeptMPDB

Values of Townsend et al. 2020, doi:10.26434/chemrxiv.13335941.v1, as listed in CycPeptMPDB.

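The data file gives no further conditions (lipid, pH, time, direction or concentration), and values from different papers need not be comparable. Other peptides of the study may be missing here. Peptides that the database sets to -10, its floor, are left out.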

PAMPA is the parallel artificial membrane permeability assay, which has no cells and reads passive diffusion. Permeability is given as log10 of P in cm/s; higher (less negative) is more permeable.

SMILES,PAMPA (log10 cm/s)
CC(C)C[C@@H]1NC(=O)[C@H](C)N(C)C(=O)[C@H]2CCCN2C(=O)[C@H](Cc2ccccc2)NC(=O)[C@@H](CC(C)C)N(C)C(=O)[C@@H]2CCCN2C(=O)C[C@H](Cc2ccccc2)NC1=O,-5.61
CCCN1CC(=O)N[C@@H](CC(C)C)C(=O)N[C@@H](CC(C)C)C(=O)N2CCC[C@H]2C(=O)N(Cc2ccccc2)CC(=O)N[C@@H](Cc2ccccc2)C(=O)N2CCC[C@H]2C1=O,-5.65
CCCN1CC(=O)N(Cc2ccccc2)CC(=O)N[C@@H](CC(C)C)C(=O)N2CCC[C@H]2C(=O)N(C)[C@H](CC(C)C)C(=O)N[C@@H](Cc2ccccc2)C(=O)N2CCC[C@@H]2C1=O,-5.51
CCCN1CC(=O)N(C)[C@@H](CC(C)C)C(=O)N[C@H](CC(C)C)C(=O)N2CCC[C@@H]2C(=O)N(Cc2ccccc2)CC(=O)N[C@@H](Cc2ccccc2)C(=O)N2CCC[C@H]2C1=O,-5.22
CCCN1CC(=O)N(C)[C@H](CC(C)C)C(=O)N(Cc2ccccc2)CC(=O)N2CCC[C@@H]2C(=O)N[C@H](CC(C)C)C(=O)N[C@@H](Cc2ccccc2)C(=O)N2CCC[C@H]2C1=O,-5.64
CC(C)C[C@H]1NC(=O)[C@H]2CCCN2C(=O)[C@H](CC(C)C)N(C)C(=O)[C@@H](CC(C)C)NC(=O)[C@H](C)N(C)C(=O)[C@H](Cc2ccccc2)NC1=O,-5.05
CC(C)C[C@@H]1NC(=O)[C@@H]2CCCN2C(=O)C[C@H](Cc2ccccc2)NC(=O)[C@@H](CC(C)C)N(C)C(=O)[C@H](C)NC(=O)[C@H](Cc2ccccc2)NC1=O,-6.28
CC(C)C[C@H]1NC(=O)[C@H](C)N(C)C(=O)[C@H](Cc2ccccc2)NC(=O)CN(Cc2ccccc2)C(=O)[C@@H]2CCCN2C(=O)CN(Cc2ccccc2)C1=O,-5.48
CC(C)C[C@@H]1C(=O)N[C@@H](Cc2ccccc2)C(=O)N2CCC[C@@H]2C(=O)N[C@H](C)C(=O)N(C)[C@@H](CC(C)C)C(=O)N(Cc2ccccc2)CC(=O)N2CCC[C@@H]2C(=O)N1C,-5.96
CC(C)C[C@@H]1NC(=O)C[C@H](Cc2ccccc2)NC(=O)[C@H]2CCCN2C(=O)[C@H](Cc2ccccc2)NC(=O)[C@@H](CC(C)C)NC(=O)[C@@H]2CCCN2C(=O)CN(Cc2ccccc2)C1=O,-5.68
CC(C)C[C@H]1NC(=O)[C@H](C)NC(=O)[C@H](Cc2ccccc2)NC(=O)[C@H](CC(C)C)N(C)C(=O)[C@@H]2CCCN2C(=O)[C@H](CC(C)C)N(C)C1=O,-5.28
CC(C)C[C@@H]1NC(=O)[C@@H]2CCCN2C(=O)[C@H](CC(C)C)NC(=O)[C@@H](CC(C)C)N(C)C(=O)[C@H](C)N(C)C(=O)[C@H](Cc2ccccc2)NC1=O,-5.76
CC(C)C[C@@H]1NC(=O)[C@@H]2CCCN2C(=O)C[C@H](Cc2ccccc2)NC(=O)[C@@H](CC(C)C)N(C)C(=O)C[C@H](Cc2ccccc2)NC(=O)[C@H]2CCCN2C(=O)[C@H](Cc2ccccc2)NC1=O,-5.94
CC(C)C[C@H]1NC(=O)CN(Cc2ccccc2)C(=O)[C@H](C)N(C)C(=O)[C@H]2CCCN2C(=O)[C@H](Cc2ccccc2)NC(=O)[C@H](CC(C)C)N(C)C(=O)[C@H]2CCCN2C1=O,-5.26
CC(C)C[C@H]1NC(=O)[C@H]2CCCN2C(=O)[C@@H](CC(C)C)NC(=O)[C@H](CC(C)C)N(C)C(=O)[C@@H](C)NC(=O)[C@H](Cc2ccccc2)NC1=O,-5.49
CC(C)C[C@@H]1NC(=O)[C@H]2CCCN2C(=O)[C@H](CC(C)C)NC(=O)[C@H](CC(C)C)N(C)C(=O)[C@@H](C)N(C)C(=O)[C@H](Cc2ccccc2)NC1=O,-5.40
CC(C)C[C@@H]1C(=O)N2CCC[C@H]2C(=O)N(C)[C@H](CC(C)C)C(=O)N[C@@H](Cc2ccccc2)C(=O)N2CCC[C@@H]2C(=O)N(C)[C@@H](C)C(=O)N(C)[C@H](CC(C)C)C(=O)N1C,-5.39
CC(C)C[C@@H]1NC(=O)[C@H](C)N(C)C(=O)[C@H](Cc2ccccc2)NC(=O)[C@@H](CC(C)C)N(C)C(=O)[C@H]2CCCN2C(=O)[C@H](CC(C)C)NC1=O,-5.43

Extract of 2 entries:

SMILES,PAMPA (log10 cm/s)
CCCN1CC(=O)N(C)[C@H](CC(C)C)C(=O)N(Cc2ccccc2)CC(=O)N2CCC[C@@H]2C(=O)N[C@H](CC(C)C)C(=O)N[C@@H](Cc2ccccc2)C(=O)N2CCC[C@H]2C1=O,-5.64
CC(C)C[C@@H]1C(=O)N2CCC[C@H]2C(=O)N(C)[C@H](CC(C)C)C(=O)N[C@@H](Cc2ccccc2)C(=O)N2CCC[C@@H]2C(=O)N(C)[C@@H](C)C(=O)N(C)[C@H](CC(C)C)C(=O)N1C,-5.39